The record followed here is publication PMC6530574.

In general, Kd refers to the concentration at which binding is half-saturated. Low values mean a tighter complex, high ones a looser complex.

In the experiment the target is HiLyte Fluor 488-labeled Aβ(1-40) (UniProt P05067). Kind of experiment: FRET or BRET. (In general: BRET reads energy transfer from a luciferase to a nearby fluorophore.)

“TTR-594 with hRBP bound (from UniProt P02766 21-147; P02753 19-201) (complex; other documents disagree on this pair)” returned a Kd of 1900 nM.
